OPERA 2.9 data: water solubility values

Values as listed in the OPERA 2.9 repository of K. Mansouri.

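OPERA's authors assembled the values from existing databases and did not measure them anew. The files give a single number for a compound and property, which may rest on several reports. Conditions of the individual experiments are not part of the data. A value may pool stereoisomers or salt forms, and the file does not say which form was measured. Some entries may be limits or estimates that an upstream database listed as plain numbers.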

Water solubility is log10 of mol/L, nominally at 25 °C; higher is more soluble.

Listed for Nc1cc([N+](=O)[O-])cc([N+](=O)[O-])c1 [3,5-Dinitroaniline]: log S -2.15 (log10 mol/L). For CO[C@H]1C[C@H](O[C@H]2CC[C@]3(C)[C@H]4CC[C@]5(C)[C@@H](C6=CC(=O)OC6)CC[C@]5(O)[C@@H]4CC[C@]3(O)C2)O[C@H](C)[C@H]1O[C@@H]1O[C@H](CO)[C@@H](O)[C@H](O)[C@H]1O [Periplocin] the data give log S -1.903 (log10 mol/L). CC1(C)C(C=C(Cl)c2ccc(Cl)cc2)C1C(=O)OC(C#N)c1ccc(F)c(Oc2ccccc2)c1 (stereo not drawn) [Flumethrin] is reported with log S -3.41 (log10 mol/L). O=[N+]([O-])O[C@@H]1CO[C@H]2[C@@H]1OC[C@@H]2O [Isosorbide 5-mononitrate] is reported with log S -0.525 (log10 mol/L). The entry for CCNNCC [1,2-Diethylhydrazine] lists log S -0.224 (log10 mol/L). For CC[C@H]1CN2CCc3cc(OC)c(OC)cc3[C@@H]2C[C@@H]1C[C@H]1NCCc2cc(OC)c(OC)cc21 [Emetine] the data give log S -2.689 (log10 mol/L). O=C(NC(=O)c1c(F)cccc1F)Nc1cc(Cl)c(OC(F)(F)C(F)F)c(Cl)c1 [Hexaflumuron] is reported with log S -7.231 (log10 mol/L). C[C@H](NC(=O)[C@H](C)NC(=O)[C@@H](N)CCP(C)(=O)O)C(=O)[O-].[Na+] [Bilanafos-sodium] is reported with log S 0.299 (log10 mol/L).

CC(=O)OC1CCC2C3CCC4=CC(=O)CCC4(C)C3CCC12C (stereo not drawn) [3-Oxoandrost-4-en-17-yl acetate] has log S -5.18 (log10 mol/L). C[C@H]1O[C@@H](O[C@H]2[C@@H](O)C[C@H](O[C@H]3[C@@H](O)C[C@H](O[C@H]4CC[C@@]5(C)[C@H](CC[C@@H]6[C@@H]5C[C@@H](O)[C@]5(C)[C@@H](C7=CC(=O)OC7)[C@@H](O)C[C@]65O)C4)O[C@@H]3C)O[C@@H]2C)C[C@H](O)[C@@H]1O [Diginatin] has log S -2.901 (log10 mol/L). The entry for C=CC(=O)OCC(CC)(COC(=O)C=C)COC(=O)C=C [Trimethylolpropane triacrylate] lists log S -2.773 (log10 mol/L). The entry for FC(F)=C(F)Cl [Chlorotrifluoroethylene] lists log S -2.486 (log10 mol/L). Listed for NC(N)=Nc1ccc2[nH]c3c(c2c1)CC1(O)C2Cc4ccc(O)c5c4C1(CCN2CC1CC1)C3O5.O=C(O)C(F)(F)F.O=C(O)C(F)(F)F (stereo not drawn) [5'-Guanidinonaltrindole di(trifluoroacetate)]: log S -1.368 (log10 mol/L). The entry for CCCCC(Br)C(=O)NC(N)=O (stereo not drawn) [N-(Aminocarbonyl)-2-bromohexanamide] lists log S -2.856 (log10 mol/L). Listed for C[C@]1(O)CC[C@H]2[C@@H]3CCC4=CC(=O)CC[C@]4(C)[C@@]3(F)[C@@H](O)C[C@@]21C [Fluoxymestrone]: log S -3.872 (log10 mol/L). CCC(=O)NC(=O)CCl [N-(Chloroacetyl)propanamide] is reported with log S -2.096 (log10 mol/L).

O=S(=O)(O)C(F)(F)C(F)(F)C(F)(F)C(F)(F)C(F)(F)C(F)(F)C(F)(F)C(F)(F)F [Perfluorooctanesulfonic acid] has log S -2.943 (log10 mol/L). Listed for CCC(C)Br (stereo not drawn) [2-Bromobutane]: log S -3.111 (log10 mol/L). The entry for COP(=O)(OC)SCCSC [Demephion-S] lists log S -2.86 (log10 mol/L). CC1=CC(=O)N2CC(=O)N(C)c3ccc(Cl)cc3C2(c2ccccc2)O1 (stereo not drawn) [Ketazolam] has log S -3.643 (log10 mol/L). For Cc1cc2[nH]c(=O)[nH]c2cc1N=NC1C(=O)NC(=O)NC1=O the data give log S -6.489 (log10 mol/L). NC(=O)OCc1ccccc1 [Benzyl carbamate] has log S -0.35 (log10 mol/L). C[C@]12CCC(=O)C=C1CC[C@@H]1[C@@H]2C(=O)C[C@]2(C)C(=O)CC[C@@H]12 is reported with log S -3.48 (log10 mol/L). For CN=C(O)Oc1cccc(Cl)c1 the data give log S -2.29 (log10 mol/L).

Listed for CC(=O)OC(c1ccc(Cl)c(Cl)c1)C(Cl)(Cl)Cl (stereo not drawn) [2,2,2-Trichloro-1-(3,4-dichlorophenyl)ethyl acetate]: log S -3.83 (log10 mol/L). Listed for CC[C@H]1CN2CC[C@H]1C[C@@H]2[C@@H](O)c1ccnc2ccccc12 [Hydrocinchonine]: log S -2.63 (log10 mol/L). Listed for CNCC(C)c1ccccc1 (stereo not drawn): log S -1.09 (log10 mol/L). For COC(=O)C(c1ccccc1)C1CCCCN1 (stereo not drawn) [Methylphenidate] the data give log S -2.689 (log10 mol/L). N#Cc1ccc(Cl)cc1 [4-Chlorobenzonitrile] has log S -2.749 (log10 mol/L). CCc1cc2c(s1)N(C)C(=O)CN=C2c1ccccc1Cl [Clotiazepam] is reported with log S -4.774 (log10 mol/L). C[C@@H]1C[C@@]2(C)[C@@H](CC[C@@H]3[C@@H]2CC[C@]2(C)[C@@H](O)CC[C@@H]32)CC1=O [Dromostanolone] is reported with log S -4.702 (log10 mol/L). Nc1cccc(P(=O)(O)O)c1 [Phosphonic acid, (3-aminophenyl)-] has log S -1.605 (log10 mol/L).

O=C([O-])C(F)(F)C(F)(F)C(F)(F)C(F)(F)C(F)(F)C(F)(F)C(F)(F)F.[NH4+] [Ammonium perfluorooctanoate] is reported with log S -1.776 (log10 mol/L). O=C(NCO)NCO [1,3-Dimethylolurea] is reported with log S -3.48 (log10 mol/L). Listed for O=[N+]([O-])Nc1ccc(Cl)cc1Cl [2,4-Dichloro-N-nitro-aniline]: log S -3 (log10 mol/L). For Nc1ccc(Sc2ccc(N)cc2)cc1 [4,4'-Thiodianiline] the data give log S -2.64 (log10 mol/L). Listed for CC(C)C1C(O)=NC(=O)N=C1O [BARBITURIC ACID, 5-IPR]: log S -1.456 (log10 mol/L). F[B-](F)(F)[NH+]1CCCCC1 [Trifluorido(piperidine)boron] has log S -3.583 (log10 mol/L). The entry for CCCCC1(CC(C)C)C(=O)NC(=O)NC1=O [5-Butyl-5-isobutyl-pyrimidine-2,4,6-trione] lists log S -2.506 (log10 mol/L). ClC1=C(Cl)C2(Cl)C3CC=CC3C1(Cl)C2(Cl)Cl (stereo not drawn) [Chlordene] is reported with log S -5.39 (log10 mol/L).

For CC(Cc1ccc(C(C)(C)C)cc1)CN1C[C@@H](C)O[C@@H](C)C1 (stereo partly drawn) [(2R,6S)-Fenpropimorph] the data give log S -4.851 (log10 mol/L). CCCC(=O)OC(C(Cl)(Cl)Cl)P(=O)(OC)OC (stereo not drawn) [Butonate] has log S -3.05 (log10 mol/L).

The last 4 entries again:

Listed for CCCCC1(CC(C)C)C(=O)NC(=O)NC1=O [5-Butyl-5-isobutyl-pyrimidine-2,4,6-trione]: log S -2.506 (log10 mol/L).
Listed for ClC1=C(Cl)C2(Cl)C3CC=CC3C1(Cl)C2(Cl)Cl (stereo not drawn) [Chlordene]: log S -5.39 (log10 mol/L).
Listed for CC(Cc1ccc(C(C)(C)C)cc1)CN1C[C@@H](C)O[C@@H](C)C1 (stereo partly drawn) [(2R,6S)-Fenpropimorph]: log S -4.851 (log10 mol/L).
Listed for CCCC(=O)OC(C(Cl)(Cl)Cl)P(=O)(OC)OC (stereo not drawn) [Butonate]: log S -3.05 (log10 mol/L).